Holding throughout (experiment): biochemical
Format in all cases: cell-based, C6 glioma

The chains behind the UniProt entries cited, without tags or fusion partners.
UniProt P61169, whole entry S197A: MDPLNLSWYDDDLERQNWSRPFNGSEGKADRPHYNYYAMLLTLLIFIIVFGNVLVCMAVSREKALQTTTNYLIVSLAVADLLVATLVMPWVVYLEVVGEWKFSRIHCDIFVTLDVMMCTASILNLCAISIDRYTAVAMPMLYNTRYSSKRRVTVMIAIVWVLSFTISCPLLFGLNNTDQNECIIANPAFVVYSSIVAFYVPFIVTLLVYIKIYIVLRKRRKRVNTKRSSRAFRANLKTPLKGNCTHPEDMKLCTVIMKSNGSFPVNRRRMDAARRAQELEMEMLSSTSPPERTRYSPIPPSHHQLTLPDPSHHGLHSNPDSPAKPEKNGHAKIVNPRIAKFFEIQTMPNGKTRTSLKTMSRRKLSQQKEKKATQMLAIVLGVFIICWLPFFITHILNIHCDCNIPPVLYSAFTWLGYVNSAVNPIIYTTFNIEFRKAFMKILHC
UniProt P61169, whole entry: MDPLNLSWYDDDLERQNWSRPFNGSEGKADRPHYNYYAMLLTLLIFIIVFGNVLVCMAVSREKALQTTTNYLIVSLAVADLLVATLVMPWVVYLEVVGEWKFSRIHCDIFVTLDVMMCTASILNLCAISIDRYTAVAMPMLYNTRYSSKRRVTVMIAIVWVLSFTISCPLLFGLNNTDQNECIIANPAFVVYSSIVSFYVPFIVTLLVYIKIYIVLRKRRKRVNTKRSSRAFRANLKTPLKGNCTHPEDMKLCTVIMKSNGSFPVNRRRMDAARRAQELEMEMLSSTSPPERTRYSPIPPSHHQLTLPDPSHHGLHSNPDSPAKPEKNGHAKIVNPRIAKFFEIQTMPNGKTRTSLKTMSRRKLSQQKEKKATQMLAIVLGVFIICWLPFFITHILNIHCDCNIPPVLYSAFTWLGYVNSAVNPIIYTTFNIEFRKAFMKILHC
UniProt P61169, whole entry S194A: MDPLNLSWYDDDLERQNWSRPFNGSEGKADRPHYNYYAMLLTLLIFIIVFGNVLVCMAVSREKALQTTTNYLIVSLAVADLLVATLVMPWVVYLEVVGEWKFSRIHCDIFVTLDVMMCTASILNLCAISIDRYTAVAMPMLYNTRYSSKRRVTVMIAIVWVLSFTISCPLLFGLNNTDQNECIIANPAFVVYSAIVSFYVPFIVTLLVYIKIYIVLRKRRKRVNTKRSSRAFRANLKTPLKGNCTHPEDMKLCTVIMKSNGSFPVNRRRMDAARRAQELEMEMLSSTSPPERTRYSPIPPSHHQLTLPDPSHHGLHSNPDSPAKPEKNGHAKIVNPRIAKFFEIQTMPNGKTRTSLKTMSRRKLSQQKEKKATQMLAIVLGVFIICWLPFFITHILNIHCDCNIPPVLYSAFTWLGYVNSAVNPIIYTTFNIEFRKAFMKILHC

Test [1] addresses D(2) dopamine receptor (Rattus norvegicus, UniProt P61169, S197A).
For test [2], the target named is D(2) dopamine receptor (Rattus norvegicus, UniProt P61169).
In test [3] the target is T1, D(2) dopamine receptor (Rattus norvegicus, UniProt P61169, S194A).
The target of test [4] is T1, D(2) dopamine receptor. This is another data set of the same source.

As usually defined, the Kd is the concentration at which binding is half-saturated. Higher therefore signals a looser complex.

As for `CN1CCc2cccc3c2[C@H]1Cc1ccc(O)c(O)c1-3` [APOMORPHINE], the Kd turned out to be 600 nM in test [1], 200 nM in test [2], 1200 nM in test [3] and 1600 nM in test [4].
